Results: PubChem BioAssay AID528 (NMMLSC, 2006)
Fewer than 10 of roughly 24,000 compounds were called active. These results got no clear call from the source, so the numbers are uncertain.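 How the source made its calls: active means fluorescent ligand binding to cells raised by more than 40% of the manganese-induced maximum; inconclusive means compound's own fluorescence above 85% of the ligand control signal; inactive means the rest.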

The chains behind the UniProt entries cited, without tags or fusion partners.
UniProt P13612, whole entry, looked up: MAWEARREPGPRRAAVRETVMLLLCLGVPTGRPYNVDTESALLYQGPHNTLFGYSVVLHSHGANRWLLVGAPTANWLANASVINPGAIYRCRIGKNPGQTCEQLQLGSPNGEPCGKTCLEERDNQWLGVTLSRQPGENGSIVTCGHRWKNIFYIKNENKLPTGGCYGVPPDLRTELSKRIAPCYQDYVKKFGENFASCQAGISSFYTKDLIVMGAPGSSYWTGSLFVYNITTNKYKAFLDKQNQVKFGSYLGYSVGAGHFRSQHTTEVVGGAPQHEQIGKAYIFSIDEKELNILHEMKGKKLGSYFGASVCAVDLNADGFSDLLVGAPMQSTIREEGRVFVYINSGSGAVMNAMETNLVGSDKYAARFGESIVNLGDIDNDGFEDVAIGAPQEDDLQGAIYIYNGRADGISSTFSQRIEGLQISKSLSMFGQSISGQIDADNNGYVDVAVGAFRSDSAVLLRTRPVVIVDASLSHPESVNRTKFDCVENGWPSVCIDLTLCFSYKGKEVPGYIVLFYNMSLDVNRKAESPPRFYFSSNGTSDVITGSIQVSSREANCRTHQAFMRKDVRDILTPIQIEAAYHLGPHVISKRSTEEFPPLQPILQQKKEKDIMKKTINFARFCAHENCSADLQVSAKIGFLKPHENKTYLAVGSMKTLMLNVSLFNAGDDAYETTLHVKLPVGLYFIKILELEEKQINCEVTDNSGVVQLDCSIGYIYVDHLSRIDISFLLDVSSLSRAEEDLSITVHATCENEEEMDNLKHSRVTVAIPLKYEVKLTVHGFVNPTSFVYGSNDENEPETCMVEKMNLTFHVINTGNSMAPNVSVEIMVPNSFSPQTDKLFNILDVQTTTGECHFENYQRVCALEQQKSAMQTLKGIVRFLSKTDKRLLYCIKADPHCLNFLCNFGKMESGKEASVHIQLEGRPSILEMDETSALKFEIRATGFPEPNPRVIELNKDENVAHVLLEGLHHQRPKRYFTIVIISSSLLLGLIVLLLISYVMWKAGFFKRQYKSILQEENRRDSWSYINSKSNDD

These compounds were tested against Integrin alpha-4 (Homo sapiens) (UniProt P13612) (assay: enhancers of LDV-FITC binding to VLA-4 integrin, primary screen, Jurkat cells, flow cytometry (AID 528)).

Row | Compound | outcome
1 | CCc1nc2c(n1)c1c(non1O)c1c2no[n+]1[O-] | inconclusive
